Results taken from PubChem BioAssay (NCATS).
Where “and” joins values, the source holds several entries; their conditions need not be identical. Identical values can stand only once. This is a selection; strong and weak results do not stand in their true shares. Records with an inconclusive call do not appear. For some of these results: Results with a measured potency or affinity are listed apart. Calls of active or inactive are those of the source. Unless noted, calls come from the whole dose curve.

The chains behind the UniProt entries cited, without tags or fusion partners. Residues count along the entry.
UniProt Q12809, 1-548 isoform 6: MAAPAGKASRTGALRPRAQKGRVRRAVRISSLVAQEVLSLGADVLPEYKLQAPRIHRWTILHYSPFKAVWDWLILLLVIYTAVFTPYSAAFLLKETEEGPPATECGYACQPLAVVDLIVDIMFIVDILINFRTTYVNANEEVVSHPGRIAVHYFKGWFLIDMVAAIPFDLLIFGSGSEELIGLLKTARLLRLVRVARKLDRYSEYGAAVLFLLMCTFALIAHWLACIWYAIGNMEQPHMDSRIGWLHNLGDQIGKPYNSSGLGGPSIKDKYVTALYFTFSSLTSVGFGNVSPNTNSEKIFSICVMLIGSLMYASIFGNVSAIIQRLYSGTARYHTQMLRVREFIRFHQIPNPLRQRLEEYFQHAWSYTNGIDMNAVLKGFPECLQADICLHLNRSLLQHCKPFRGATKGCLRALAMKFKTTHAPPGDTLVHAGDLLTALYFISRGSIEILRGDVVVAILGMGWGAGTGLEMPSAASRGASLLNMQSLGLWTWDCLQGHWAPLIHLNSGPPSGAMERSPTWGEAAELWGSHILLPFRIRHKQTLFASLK
UniProt P08659, whole entry: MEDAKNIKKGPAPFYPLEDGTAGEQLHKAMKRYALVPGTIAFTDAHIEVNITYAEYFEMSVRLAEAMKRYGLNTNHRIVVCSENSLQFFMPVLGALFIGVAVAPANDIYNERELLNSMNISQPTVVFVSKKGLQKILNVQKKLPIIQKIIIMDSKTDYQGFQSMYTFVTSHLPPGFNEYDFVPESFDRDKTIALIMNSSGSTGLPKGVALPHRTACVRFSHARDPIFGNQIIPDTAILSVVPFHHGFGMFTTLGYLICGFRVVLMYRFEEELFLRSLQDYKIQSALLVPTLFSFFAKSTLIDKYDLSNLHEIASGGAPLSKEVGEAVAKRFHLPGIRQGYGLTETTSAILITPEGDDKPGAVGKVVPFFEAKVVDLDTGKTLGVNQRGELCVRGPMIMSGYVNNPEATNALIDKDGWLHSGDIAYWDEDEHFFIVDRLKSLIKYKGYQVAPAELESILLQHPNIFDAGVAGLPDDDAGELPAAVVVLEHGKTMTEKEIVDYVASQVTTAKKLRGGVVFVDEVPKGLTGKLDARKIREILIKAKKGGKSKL
UniProt Q03181, whole entry: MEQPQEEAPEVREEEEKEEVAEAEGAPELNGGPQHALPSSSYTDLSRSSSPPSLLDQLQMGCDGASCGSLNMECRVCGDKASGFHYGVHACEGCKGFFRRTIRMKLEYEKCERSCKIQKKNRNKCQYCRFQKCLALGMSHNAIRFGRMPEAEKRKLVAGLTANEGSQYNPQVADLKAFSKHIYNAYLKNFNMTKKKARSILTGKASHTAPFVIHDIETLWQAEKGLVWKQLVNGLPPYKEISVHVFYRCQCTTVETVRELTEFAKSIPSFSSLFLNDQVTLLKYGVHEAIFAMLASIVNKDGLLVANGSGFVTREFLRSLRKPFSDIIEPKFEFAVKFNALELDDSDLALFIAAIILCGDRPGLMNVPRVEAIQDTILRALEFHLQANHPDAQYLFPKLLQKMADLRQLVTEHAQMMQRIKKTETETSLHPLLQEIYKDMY
UniProt P10828, whole entry: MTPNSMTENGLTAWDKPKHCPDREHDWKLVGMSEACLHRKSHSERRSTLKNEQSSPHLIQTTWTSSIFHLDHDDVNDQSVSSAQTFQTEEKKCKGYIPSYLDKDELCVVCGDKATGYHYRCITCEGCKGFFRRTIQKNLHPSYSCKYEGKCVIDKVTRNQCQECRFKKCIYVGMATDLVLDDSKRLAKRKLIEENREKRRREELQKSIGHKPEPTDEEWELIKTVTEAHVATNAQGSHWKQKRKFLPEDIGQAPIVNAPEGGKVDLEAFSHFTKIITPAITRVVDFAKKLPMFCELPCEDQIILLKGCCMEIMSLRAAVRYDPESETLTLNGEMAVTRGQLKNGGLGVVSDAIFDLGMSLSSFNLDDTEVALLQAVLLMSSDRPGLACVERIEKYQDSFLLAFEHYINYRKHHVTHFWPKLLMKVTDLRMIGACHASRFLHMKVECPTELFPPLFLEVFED

Columns and labels:
[1] = S16 Schwann cell PMP22 intronic element beta-lactamase assay (AID 624044); details: S16 rat Schwann cells, PMP22 element beta-lactamase FRET, 24 h; at 38.3 µM (top of the series) unless noted;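 note: 0% = DMSO and -100% = potassium clavulanate positive control; nearly all actives have a fitted effect of over 15% in size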
[2] = target: Voltage-gated inwardly rectifying potassium channel KCNH2 (Homo sapiens) (UniProt Q12809); assay: qHTS Assay for Small Molecule Inhibitors of the Human hERG Channel Activity (AID 588834; active = well fitted curve in the direction sought with a large enough effect; an effect the other way counts as inactive or inconclusive;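 note: U2OS cells transduced with hERG by BacMam; top concentration of the series differs between compounds; % is set by controls: 0 for no effect and ±100 for the full control effect; lower thallium flux fluorescence means stronger hERG block; nearly all actives have a fitted effect of over 50% in size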); details: U2OS BacMam hERG, FluxOR thallium flux fluorescence
[3] = target: Luciferin 4-monooxygenase (Photinus pyralis) (UniProt P08659); assay: Biochemical firefly luciferase enzyme assay for NPC (AID 624030; active = well fitted curve in the direction sought with a large enough effect; an effect the other way counts as inactive or inconclusive;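 note: purified P. pyralis luciferase at 10 nM with luciferin and ATP substrate; 0% = DMSO and -100% = full luciferase inhibition by PTC124 control; nearly all actives have a fitted effect of over 70% in size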); details: purified P. pyralis luciferase, luminescence, 5 min
Summary of the method: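 Counter-screen for direct inhibition of the luciferase enzyme by approved-drug library compounds, run at 10 nM enzyme in 50 mM Tris acetate (final). Luminescence was read within 5 min of enzyme-buffer addition and normalized to PTC124 versus DMSO (0%).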

[4] = S16 Schwann cell viability assay (CellTiter-Glo assay) (AID 624031; active = well fitted curve in the direction sought with a large enough effect; an effect the other way counts as inactive or inconclusive;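 note: native untransfected S16 rat Schwann cells; cellular ATP luminescence as a viability measure; plate controls were DMSO-treated cells for no effect and cell-free wells for full effect; nearly all actives have a fitted effect of over 70% in size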); details: S16 rat Schwann cells viability, 24 h; at 57.5 µM (top of the series) unless noted
Summary of the method: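 Rat S16 Schwann cells without reporter constructs received compound or DMSO for 24 h at 37 °C under 5% CO2. Cellular ATP was then quantified by CellTiter-Glo luminescence, with vehicle wells defined as 0% activity and cell-free wells as reference.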

[5] = S16 Schwann cell PMP22 intronic element firefly luciferase assay (AID 624032; active = well fitted curve in the direction sought with a large enough effect; an effect the other way counts as inactive or inconclusive; note: nearly all actives have a fitted effect of over 30% in size; note: potency is the fitted concentration of half-maximal effect;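 for activity change, negative = inhibition: plate controls were DMSO for no effect and PTC124 positive control mean for full effect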)
[6] = target: Peroxisome proliferator-activated receptor delta (Homo sapiens) (UniProt Q03181); assay: qHTS assay for small molecule antagonists of peroxisome proliferator-activated receptor delta signaling (AID 588535; active = well fitted inhibition curve with a large enough effect in the signal ratio, with a control signal flat, not every such curve was filed as active; the % refers to the signal ratio); details: HEK293T PPARd-UAS-bla, beta-lactamase FRET ratio, 18 h; at 76.7 µM (top of the series)
[7] = target: Peroxisome proliferator-activated receptor gamma (Homo sapiens) (UniProt P37231); assay: qHTS assay for small molecule antagonists of peroxisome proliferator-activated receptor gamma signaling (AID 588537; active = well fitted inhibition curve with a large enough effect in the signal ratio, with a control signal flat, not every such curve was filed as active; the % refers to the signal ratio;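 note: reporter cells co-stimulated with 50 nM rosiglitazone agonist during compound treatment; % of control where 0% means no effect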)
Summary of the method: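 Compounds are tested as concentration series for inhibition of rosiglitazone-driven (50 nM) reporter expression in GeneBLAzer PPAR-gamma-UAS-bla HEK293 cells. After 16 h at 37 C, CCF4 substrate is added for 2 h at room temperature and blue/green fluorescence is measured.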

[8] = target: Vitamin D3 receptor (Homo sapiens) (UniProt P11473); assay: qHTS assay for small molecule antagonists of vitamin D receptor signaling (AID 588541); details: HEK293T VDR-UAS-bla, beta-lactamase ratio, antagonist mode; at 76.7 µM (top of the series);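 note: receptor activated by calcitriol during compound treatment; % is set by controls: 0 for no effect and ±100 for the full control effect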
Summary of the method: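 VDR-UAS-bla HEK293T cells (2000/well, 2% charcoal-stripped FBS) were treated with titrated compounds plus 1-alpha,25-dihydroxyvitamin D3 (50 nM or 3 nM final) for 16 h at 37 C. CCF4 beta-lactamase fluorescence was read; Hill fits gave IC50.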

[9] = target: Vitamin D3 receptor (Homo sapiens) (UniProt P11473); assay: qHTS assay for small molecule agonists of vitamin D receptor signaling (AID 588543); details: HEK293T VDR-UAS-bla, beta-lactamase ratio, 16 h; at 76.8 µM (top of the series);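 note: 0% = DMSO basal and 100% = reference agonist control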
Summary of the method: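 qHTS in agonist mode: compound titrations stimulate a VDR-driven β-lactamase reporter in HEK293T cells over 16 h at 37 °C. Response normalized to 50 nM 1α,25-dihydroxyvitamin D3 = 100%, DMSO = 0%; Hill fitting gives EC50 and maximal response.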

[10] = target: Retinoic acid receptor RXR-alpha (Homo sapiens) (UniProt P19793); assay: qHTS assay for small molecule agonists of retinoid X receptor alpha signaling (AID 588544); details: HEK293T RXRa-UAS-bla, beta-lactamase reporter, 18 h; at 76.7 µM (top of the series);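 note: 0% = DMSO basal wells and 100% = reference agonist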
[11] = target: Retinoic acid receptor RXR-alpha (Homo sapiens) (UniProt P19793); assay: qHTS assay for small molecule antagonists of retinoid X receptor alpha signaling (AID 588546; active = well fitted inhibition curve with a large enough effect in the signal ratio, with a control signal flat, not every such curve was filed as active; the % refers to the signal ratio;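 note: cells stimulated with 9-cis-retinoic acid as agonist; % is set by controls: 0 for no effect and ±100 for the full control effect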); details: HEK293T RXRa-UAS-bla, beta-lactamase ratio, antagonist mode
Summary of the method: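 Beta-lactamase reporter inhibition, read as CCF4 fluorescence ratio (ex 405, em 460/530 nm) after 2 h at RT. HEK293T UAS-bla cells, 2500/well, were stimulated with 9-cis-RA at 500 or 100 nM final alongside test compound for 18 h at 37 C.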

[12] = target: Thyroid hormone receptor beta (Homo sapiens) (UniProt P10828); assay: qHTS assay for small molecule antagonists of thyroid hormone receptor beta signaling (AID 588547; active = well fitted inhibition curve with a large enough effect in the signal ratio, with a control signal flat, not every such curve was filed as active; the % refers to the signal ratio); details: TR-UAS-bla HEK293, beta-lactamase ratio, antagonist mode, 18 h; stronger effect = lower value
Summary of the method: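 TR-UAS-bla GripTite HEK293 cells in 2% charcoal/dextran FBS medium were preincubated 4 h at 37 C, given compound (0.59 nM to 92 uM) plus 0.4 nM T3 (final) for 18 h, then CCF4 for 2 h at RT; Hill fit gave IC50.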

[13] = qHTS assay for small molecule activators of the nuclear factor-kappa B (NF-kB) signaling pathway (AID 651749; active = well fitted activation curve with a large enough effect in the signal ratio; the % refers to the signal ratio; note: % of control where 0% means no effect); details: NF-kB-bla ME-180 cells, beta-lactamase FRET ratio, 16 h; stronger effect = higher value
Summary of the method: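 Human ME-180 cervical cells with an NF-kB-bla construct; compounds added via 23 nL pin transfer, DMSO as vehicle; incubation 16 hr. Reporter activity measured by FRET disruption.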

[14] = target: Peroxisome proliferator-activated receptor gamma (Homo sapiens) (UniProt P37231); assay: qHTS assay for small molecule agonists of peroxisome proliferator-activated receptor gamma signaling (AID 588536; active = well fitted curve in the direction sought with a large enough effect in the signal ratio, with a control signal flat, not every such curve was filed as active; the % refers to the signal ratio;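 note: 0% = DMSO basal wells and 100% = rosiglitazone at 2 µM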); details: HEK293 PPARg-UAS-bla, beta-lactamase ratio, 16 h, percent of rosiglitazone response, DMSO as zero; at 76.7 µM (top of the series)
Summary of the method: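 Cells were plated and held 6–6.5 h at 37 C, then compounds were added as a titration series. After a further 16 h, CCF4 dye was loaded for 2 h at room temperature and emission at 460/530 nm recorded.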

[15] = target: Thyroid hormone receptor beta (Homo sapiens) (UniProt P10828); assay: qHTS assay for small molecule agonists of thyroid hormone receptor beta signaling (AID 588545); details: TR-UAS-bla GripTite HEK 293, beta-lactamase ratio, agonist mode, 18 h, percent of T3 response, DMSO as zero; at 76.7 µM (top of the series)
Summary of the method: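 In this cell-based screen, titrated compounds act on HEK 293 cells held in medium with 2% charcoal/dextran FBS, NEAA and pyruvate for 18 hrs at 37 C. Responses are expressed relative to T3 (10 nM) as 100% and basal DMSO as 0%.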

[16] = qHTS assay for small molecule agonists of the antioxidant response element (ARE) signaling pathway (AID 651741; active = well fitted activation curve with a large enough effect in the signal ratio; the % refers to the signal ratio; note: potency is the fitted concentration of half-maximal effect; for activation: % of control where 0% means no effect)
Summary of the method: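 Reporter: beta-lactamase under ARE, stably in HepG2. Exposure: 16 h, 37 C, compounds delivered in DMSO by pin tool after 5 h cell preincubation. Readout: FRET substrate fluorescence after 2 h at RT.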

[17] = Cell Proliferation Assay against the TMD8 Cell Line (AID 651645; active = well fitted curve in the direction sought with a large enough effect; an effect the other way counts as inactive or inconclusive;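 note: cells exposed to compound for 48 h before reading; 100% = DMSO and 0% = 9.2 µM bortezomib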); details: TMD8 DLBCL cell line proliferation/viability; at 46.1 µM (top of the series)
Summary of the method: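 Seed log-phase TMD8 cells in RPMI containing 5% FBS, add compounds at once, incubate 48 hours at 37C. Equilibrate to room temperature, add CellTiter-Glo, read luminescence after 15 minutes and express relative to DMSO and bortezomib controls.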

NC(=O)Nc1ccc([As](=O)(O)O)cc1
inactive: ratio activity, negative = inhibition [1] -0.651%

OCCSCCO
inactive: activity change, negative = inhibition ([2]; at 46.1 µM (top of the series)) 7.63% | activity change, negative = inhibition ([3]; at 58.6 µM (top of the series)) 5.09% | activity change, negative = cytotoxicity [4] -18% | Potency [5] | ratio activity, negative = inhibition [1] 2.47%

CCOP(=S)(CC)Oc1cc(Cl)c(Cl)cc1Cl (configuration not stated)
inactive: activity change, negative = inhibition [6] -12.7% | Potency [7] | activity change, negative = inhibition [8] 5.46% | activation [9] -2.56% | activation [10] -6.12% | max response [11] 3.45% | inhibition [12] -0.529% | activation [13] 0.487%

Cc1c([N+](=O)[O-])cccc1[N+](=O)[O-]
inactive: activation [14] -0.601% and -5.26% | Potency [7] | activity change, negative = inhibition [8] -0.306% and 11.6% | activation [9] 1.03% and 2.84% | activation [10] -2.35% and 8.88% | activation [15] -3.4% and -4.7% | max response [11] 14.9% and -2.96% | inhibition [12] 12.6% and 19.8% | activity change, negative = inhibition ([2]; at 92.2 µM (top of the series)) 3.07% | Potency [16] | activation [13] -0.445% and 0.197%

Cc1ccc([N+](=O)[O-])c([N+](=O)[O-])c1
inactive: activation [14] 4.72% | activity change, negative = inhibition [8] 11.2% | activation [10] -15.3% and -8.29% | activation [15] -33.9% and -6.61% | max response [11] -5.7% and 3.82% | inhibition [12] 25.9% and 10.1% | activity change, negative = inhibition ([2]; at 92.2 µM (top of the series)) 0.866% | activation [13] 0.0911% and 0.409%

Nc1nc2ccc(OC(F)(F)F)cc2s1
31.6%: viability (% of control) [17]

C/C1=C2N=C(/C=C3N=C(/C(C)=C4\[N-][C@@](C)([C@@H]5N=C1[C@](C)(CCC(=O)NC[C@@H](C)OP(=O)([O-])O[C@H]1[C@@H](O)[C@@H](n6cnc7cc(C)c(C)cc76)O[C@@H]1CO)[C@H]5CC(N)=O)[C@@](C)(CC(N)=O)[C@@H]4CCC(N)=O)[C@@](C)(CC(N)=O)[C@@H]\3CCC(N)=O)C(C)(C)[C@@H]/2CCC(N)=O.[C-]#N.[Co+3]
inactive: activity change, negative = inhibition ([2]; at 20.6 µM (top of the series)) 5.6%

O=[N+]([O-])c1cccc([N+](=O)[O-])c1
inactive: activity change, negative = inhibition [6] 21% and 9.21% | activation [14] 5.76% and 3.28% | Potency [7] | activity change, negative = inhibition [8] 5.91% and 2.32% | activation [9] 3.89% and 4.78% | activation [10] -4.79% | activation [15] -25.3% and -4.82% | max response [11] 20.7% and 5.36% | inhibition [12] -1.4% and 9.98% | activity change, negative = inhibition ([2]; at 46.1 µM (top of the series)) -4.7% | activity change, negative = inhibition ([2]; at 92.2 µM (top of the series)) 4.81% | activity change, negative = inhibition ([3]; at 58.6 µM (top of the series)) 11.9% | activity change, negative = inhibition ([3]; at 123 µM (top of the series)) -2.42% | activity change, negative = cytotoxicity [4] 4.05% | ratio activity, negative = inhibition [1] 0.944% | activation [13] 0.607% and -0.151%
active: Potency [16] 54.5 µM

C/C1=C2N=C(/C=C3N=C(/C(C)=C4\[N-][C@@](C)([C@H]5N=C1[C@@](C)(CCC(=O)NC[C@H](C)OP(=O)([O-])O[C@@H]1[C@H](O)[C@H](n6cnc7cc(C)c(C)cc76)O[C@@H]1CO)[C@@H]5CC(N)=O)[C@](C)(CC(N)=O)[C@H]4CCC(N)=O)[C@@](C)(CC(N)=O)[C@@H]\3CCC(N)=O)C(C)(C)[C@@H]/2CCC(N)=O.[C-]#N.[Co+3]
active: Potency [5] 15.5 µM
inactive: activity change, negative = inhibition ([3]; at 24.9 µM (top of the series)) -2.69% | activity change, negative = cytotoxicity [4] 3.39% [at 25.7 µM] | ratio activity, negative = inhibition [1] -0.295% [at 17.1 µM]

CCOP(=O)(CC)OCC
inactive: activation [14] -0.489% | Potency [7] | activity change, negative = inhibition [8] -4% | activation [9] -0.781% | activation [10] 9.21% | activation [15] -13.5% | max response [11] 2.97% | inhibition [12] 4.05% | activity change, negative = inhibition ([2]; at 92.2 µM (top of the series)) 0.215% | Potency [16] | activation [13] 0.0333%
